Columns and labels:
Musca domestica [1] = assay: Insecticidal activity against Musca domestica
Musca domestica [2] = assay: Insecticidal activity against Musca domestica in presence of synergist piperonyl butoxide

| Structure (SMILES) | LC50 (Musca domestica [1]) [µg/g] | LC50 (Musca domestica [2]) [µg/g] |
| --- | --- | --- |
| CC(C)(C)C12COC(c3ccc(C#N)cc3)(OC1)OC2 | 4.8 | 0.23 |
| C#Cc1ccc(C23OCC(C(C)(C)C)(CO2)CO3)cc1 | 0.087 | 0.011 |
| CC(C)(C)C12COC(c3ccc(Cl)cc3)(OC1)OC2 | 10 | 1.5 |
| CC(C)(C)C12COC(c3ccc(Br)cc3)(OC1)OC2 | 3.5 | 0.83 |
